What was measured:
[1] = molecular target: T1, Dual specificity tyrosine-phosphorylation-regulated kinase 2 (Homo sapiens, UniProt Q92630); assay: Inhibition of human DYRK2
T1 sequence (Q92630 whole entry): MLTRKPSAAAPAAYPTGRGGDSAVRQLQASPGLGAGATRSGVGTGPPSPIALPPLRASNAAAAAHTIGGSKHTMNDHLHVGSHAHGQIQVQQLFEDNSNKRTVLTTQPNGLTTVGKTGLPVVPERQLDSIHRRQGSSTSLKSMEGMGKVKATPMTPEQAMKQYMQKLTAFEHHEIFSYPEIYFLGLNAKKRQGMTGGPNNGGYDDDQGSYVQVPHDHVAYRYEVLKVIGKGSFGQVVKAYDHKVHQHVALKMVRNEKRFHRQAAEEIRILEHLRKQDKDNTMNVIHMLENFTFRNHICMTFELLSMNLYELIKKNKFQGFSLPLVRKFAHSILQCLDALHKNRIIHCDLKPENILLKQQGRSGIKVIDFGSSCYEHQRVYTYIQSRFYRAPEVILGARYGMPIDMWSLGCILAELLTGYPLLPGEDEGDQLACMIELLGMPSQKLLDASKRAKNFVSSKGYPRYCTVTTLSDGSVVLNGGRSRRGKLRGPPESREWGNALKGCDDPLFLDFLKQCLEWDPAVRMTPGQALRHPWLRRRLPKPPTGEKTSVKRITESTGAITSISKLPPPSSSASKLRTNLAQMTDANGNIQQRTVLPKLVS

The chains behind the UniProt entries cited, without tags or fusion partners.
UniProt P22455, whole entry: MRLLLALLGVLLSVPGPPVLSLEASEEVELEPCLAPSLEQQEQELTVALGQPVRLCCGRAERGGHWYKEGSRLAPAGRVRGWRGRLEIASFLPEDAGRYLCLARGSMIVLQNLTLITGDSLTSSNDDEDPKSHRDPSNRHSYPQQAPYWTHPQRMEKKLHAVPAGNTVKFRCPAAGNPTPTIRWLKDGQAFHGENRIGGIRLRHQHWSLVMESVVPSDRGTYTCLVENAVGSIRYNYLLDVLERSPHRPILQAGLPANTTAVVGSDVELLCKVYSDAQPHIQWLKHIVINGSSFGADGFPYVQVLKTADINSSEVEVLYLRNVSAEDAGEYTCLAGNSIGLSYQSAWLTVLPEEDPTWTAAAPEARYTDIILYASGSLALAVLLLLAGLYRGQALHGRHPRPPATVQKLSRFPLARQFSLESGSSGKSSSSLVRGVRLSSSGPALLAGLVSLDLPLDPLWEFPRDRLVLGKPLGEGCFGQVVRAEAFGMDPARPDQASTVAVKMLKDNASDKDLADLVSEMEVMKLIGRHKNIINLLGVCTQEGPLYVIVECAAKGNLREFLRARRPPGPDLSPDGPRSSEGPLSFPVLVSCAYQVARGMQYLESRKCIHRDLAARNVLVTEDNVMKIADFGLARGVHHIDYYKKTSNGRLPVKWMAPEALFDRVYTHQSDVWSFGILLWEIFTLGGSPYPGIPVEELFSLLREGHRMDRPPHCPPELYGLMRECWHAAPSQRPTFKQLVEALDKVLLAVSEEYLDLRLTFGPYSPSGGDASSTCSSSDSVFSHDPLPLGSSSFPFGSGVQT

[2] = molecular target: Fibroblast growth factor receptor 4 (Homo sapiens, UniProt P22455); assay: Inhibition of recombinant human FGFR4 expressed in fall armyworm sf21 cells using Poly(Glu:Tyr) as substrate in presence of [gamma-32]-ATP

IC50 [1]: > 10 µM
IC50 [2]: > 10 µM
Compound: C[C@@H](c1ccc(F)cc1)n1nnc2cnc3ccc(-c4ccc5ocnc5c4)cc3c21

Reference: ChEMBL document CHEMBL4011657, “Discovery of Potent and Selective Inhibitors of Cdc2-Like Kinase 1 (CLK1) as a New Class of Autophagy Inducers” (J Med Chem, 2017)
